By UniProt entry, the sequences of proteins in these tests, tags left out.
UniProt Q02153, whole entry: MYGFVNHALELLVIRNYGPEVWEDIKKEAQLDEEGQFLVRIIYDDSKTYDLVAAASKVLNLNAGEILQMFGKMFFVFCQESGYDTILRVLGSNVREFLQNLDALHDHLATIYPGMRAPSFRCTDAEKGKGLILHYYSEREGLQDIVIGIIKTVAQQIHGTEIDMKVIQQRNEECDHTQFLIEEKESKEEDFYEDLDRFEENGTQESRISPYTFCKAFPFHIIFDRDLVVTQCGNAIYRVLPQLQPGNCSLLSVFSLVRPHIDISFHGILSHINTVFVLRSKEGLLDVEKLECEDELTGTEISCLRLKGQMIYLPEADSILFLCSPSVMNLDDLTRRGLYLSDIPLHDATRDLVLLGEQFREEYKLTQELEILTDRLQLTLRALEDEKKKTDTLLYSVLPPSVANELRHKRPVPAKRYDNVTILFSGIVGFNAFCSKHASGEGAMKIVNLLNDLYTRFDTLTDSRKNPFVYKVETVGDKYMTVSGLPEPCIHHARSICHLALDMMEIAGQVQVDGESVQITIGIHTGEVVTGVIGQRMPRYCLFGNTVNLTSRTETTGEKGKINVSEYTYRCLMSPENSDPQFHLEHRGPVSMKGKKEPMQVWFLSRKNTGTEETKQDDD
UniProt Q02108, whole entry partner: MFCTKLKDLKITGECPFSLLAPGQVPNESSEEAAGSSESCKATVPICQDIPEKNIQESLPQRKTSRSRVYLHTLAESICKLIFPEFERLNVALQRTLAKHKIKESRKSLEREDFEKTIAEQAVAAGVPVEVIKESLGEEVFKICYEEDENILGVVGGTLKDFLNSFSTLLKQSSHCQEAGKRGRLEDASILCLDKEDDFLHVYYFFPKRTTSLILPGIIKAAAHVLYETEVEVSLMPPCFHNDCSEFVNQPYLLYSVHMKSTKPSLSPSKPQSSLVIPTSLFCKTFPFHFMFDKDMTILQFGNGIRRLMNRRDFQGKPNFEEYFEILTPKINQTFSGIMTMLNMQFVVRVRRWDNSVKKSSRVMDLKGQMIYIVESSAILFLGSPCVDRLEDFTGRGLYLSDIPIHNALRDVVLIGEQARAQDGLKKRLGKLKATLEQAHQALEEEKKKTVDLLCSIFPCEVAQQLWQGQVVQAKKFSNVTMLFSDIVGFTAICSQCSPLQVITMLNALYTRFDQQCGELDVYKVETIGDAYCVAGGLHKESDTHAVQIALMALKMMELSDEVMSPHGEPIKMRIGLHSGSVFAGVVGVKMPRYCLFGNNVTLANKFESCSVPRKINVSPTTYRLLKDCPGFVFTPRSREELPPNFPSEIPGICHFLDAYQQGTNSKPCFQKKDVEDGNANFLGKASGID

In patent publication US9353090B2, “Heterocyclic carboxylic acids as activators of soluble guanylate cyclase” (Boehringer Ingelheim International GmbH, priority 2014, dated 2016):

Assays:
[1] = Solubility in McIlvaine buffer at pH 2.2, 4.5 and 6.8 (24 h shaking, UPLC-UV); settings: for Solubility (pH 2.2): McIlvaine buffer pH 2.2; for Solubility (pH 4.5): McIlvaine buffer pH 4.5; for Solubility (pH 6.8): McIlvaine buffer pH 6.8
Experimental: Solubility is measured by the following method.
100 uL, 10 mM DMSO stock solution of each compound is prepared in a 96 well plate format. The experiment is done in single determination at 3 pH values (2.2, 4.5 and 6.8). For each pH and one reference, 40 uL of each compound is needed.
McIlvaine pH 2.2: To 2.076 g citric acid monohydrate and 0.043 g Na2HPO4×2H2O add 100 ml deionized water
McIlvaine pH 4.5: To 1.166 g citric acid monohydrate and 1.585 g Na2HPO4×2H2O add 100 ml deionized water
McIlvaine pH 6.8: To 0.476 g citric acid monohydrate and 2.753 g Na2HPO4×2H2O add 100 ml deionized water
With a suitable liquid handling device (Multipette® or a liquid handler) 390 uL of each buffer solution and 10 uL of compound is added to each well of a 96 deep well plate. The plates are covered firmly and shaken for 24 h on an over head shaker (at 54 RPM) at room temperature. The DMSO content in the final buffer is 2.5% v/v.
After 24 h the plates are centrifuged to remove droplets on the lid before opening (for ˜5 min at 2500 RPM).
The filtration is done under vacuum with Millipore 96 well filter plate. Filtrate is collected in a deep well plate and transferred to a suitable plate for UPLC analysis.
The reference plate is prepared by adding 10 uL of compound to 390 uL of 50:50 acetonitrile/water in a 96 deep well plate and transferred to a suitable plate for UPLC analysis. Wells are checked visually for precipitation, any presence noted under comments in reported results.
The samples are measured with UPLC-UV using the chromatographic method described below.
Waters Empower®2 software is used for generating Sample Sets (according to the plate layout), Sample Set Methods and Instrument Methods.
One Sample Set comprises the methods for three 96 well plates (one reference plate and two sample plates, and includes one Sample Set Method and one Instrument Method).
3. Data Processing and Analysis
The UV chromatograms collected at 254 nm are integrated and processed.
It is assumed that the compound is completely dissolved in the reference solution (50:50 acetonitrile/water)

[2] = target: human soluble guanylate cyclase alpha 1 and beta 1 subunits (sGC) (Homo sapiens (Human), UniProt Q02153); test: sGC cellular activator assay (cGMP, HTRF), in the presence and absence of 50% human serum; settings: CHO cells stably expressing human sGC alpha 1/beta 1, preincubated with 40 microM ODQ; cGMP by HTRF; Table 2 does not state whether with or without 50% human serum
Experimental: The sGC cellular activator assay is performed in the presence and absence of 50% human serum (HS) using Chinese hamster ovary cells that have been stably transfected to express the human soluble guanylate cyclase alpha 1 and beta 1 subunits (sGC). Cells are preincubated with 40 microM 1H-[1,2,4]oxadiazolo[4,3-a]quinoxalin-1-one (ODQ), an sGC inhibitor, for one h in buffer containing 0.1% bovine serum albumin and 3-isobutyl-1-methylxanthine (IBMX). Concentration response curves are prepared for test compounds in DMSO. An intermediate dilution of the compounds is performed in either buffer containing IBMX or type AB HS containing IBMX. Diluted compounds are added to cells and they are incubated at room temperature for thirty min. cGMP is measured using a CisBio homogeneous time resolved fluorescence kit and the EC50 is calculated for each compound.
Representative compounds of the present invention were tested for activity the above assay. Preferred compounds have an EC50 of <1,000 nM in the above assay and more preferred compounds have an EC50<200 nM.

[3] = Human liver microsome (HLM) metabolic stability assay; settings: human liver microsomes
Experimental: The 5 time point, high-throughput human liver microsome (HLM) metabolic stability assay is designed to determine in vitro compound metabolism. Compounds are incubated with HLMs at a concentration of 1 uM, at 37° C., for a total of 60 min. The percent of compound remaining at 5, 15, 30, and 60 min is used to calculate the t1/2 (min), CLint (mL/min/kg), CLh (mL/min/kg), and % Qh. The assay is based on a 96-well format and can accommodate up to 92 compounds per plate (n=1).
Using the 96-well multi-channel head, the Biomek FX, equipped with a Peltier heating block/shaker, is programmed to accomplish the following steps: • 1. Pipette 175 uL of 1.15 mg/mL microsomes into each of the 96 conical inserts (Analytical Sales and Products, catalog number 96PL05) that fit into the plate of the Peltier heating block/shaker (the incubation plate) • 2. Add 5 uL of compounds from the assay plate to the microsomes and shake the mixture at 600 rpm at 42.1° C. for 10 min (a setting of 42.1° C. on the Peltier is required for the samples to incubate at 37° C.) • 3. After 10 min, prompt the user to add the NADPH plate to the deck and add 20 uL from the NADPH plate to the incubation plate to start the reaction • 4. […]
The plates are analyzed using LC/MS/MS with electron spray ionization (ESI) and the previously determined MRM transitions. […]

Compound | Solubility (pH 2.2) [1] | Solubility (pH 4.5) [1] | Solubility (pH 6.8) [1] | EC50 [2] | Metabolic stability (Qh %), % hepatic blood flow [3]
Cc1ccc(OCc2ccc3c(c2C)CCN(C2COC2)CC3)c(-c2csc(N3CC[C@@]4(C(=O)O)C[C@H]4C3)n2)c1 | 140 μg/mL | 15 μg/mL | 1.9 μg/mL | 10 nM | 33%
CO[C@@H]1CN(c2nc(-c3cc(F)cc(C)c3OCc3ccc4c(c3)[C@@H](C)CN(C3COC3)CC4)cs2)CC[C@@H]1C(=O)O | 112.6 μg/mL | 48.0 μg/mL | 64.9 μg/mL | 5 nM | 69%
